Drawing on PubChem BioAssay AID624415 (National Center for Advancing Translational Sciences (NCATS), 2012), this text covers activity change, negative = inhibition for 35 compounds.

By UniProt entry, the sequences of proteins in these tests, tags left out.
UniProt Q9GZU1, whole entry: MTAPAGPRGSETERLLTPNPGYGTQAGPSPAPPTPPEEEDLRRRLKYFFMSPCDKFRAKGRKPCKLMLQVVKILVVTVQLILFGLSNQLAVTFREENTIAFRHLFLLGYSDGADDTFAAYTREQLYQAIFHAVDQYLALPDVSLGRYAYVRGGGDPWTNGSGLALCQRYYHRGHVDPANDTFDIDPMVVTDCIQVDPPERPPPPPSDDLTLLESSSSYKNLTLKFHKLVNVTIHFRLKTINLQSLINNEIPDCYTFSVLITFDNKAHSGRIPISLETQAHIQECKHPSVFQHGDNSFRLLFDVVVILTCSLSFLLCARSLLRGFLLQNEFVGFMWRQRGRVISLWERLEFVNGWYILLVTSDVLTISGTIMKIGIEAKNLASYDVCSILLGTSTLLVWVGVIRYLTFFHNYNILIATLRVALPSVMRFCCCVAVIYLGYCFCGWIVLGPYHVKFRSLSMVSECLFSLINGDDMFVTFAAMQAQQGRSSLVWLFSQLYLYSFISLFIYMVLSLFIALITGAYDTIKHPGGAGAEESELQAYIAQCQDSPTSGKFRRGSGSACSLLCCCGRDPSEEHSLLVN

Structures are written as SMILES. Where “and” joins values, the source holds several entries; their conditions need not be identical. Equal entries are not always repeated. The entries are a selection whose mix differs from that of the whole data set. Some results for these compounds are left out of this collection, so the calls shown say nothing about other tests. Calls of active or inactive are those of the source. Cut-off read from the data, not from the text of the source: active = activity change below about -50%; inconclusive = between about -30% and that limit; inactive = weaker than that.
% is set by controls: 0 for no effect and ±100 for the full control effect.

This assay has as its target Mucolipin-1 (Homo sapiens) (UniProt Q9GZU1). The assay is described as follows: qHTS for Inhibitors of the Human Mucolipin Transient Receptor Potential 1 (TRPML1).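 Note: stimulus is agonist 54-4 at its EC80 concentration.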 Particulars: TRPML1-inducible cells, Ca2+ dye fluorescence, FDSS; hits give low values; inhibition of EC80 agonist-evoked calcium signal. The source says: Mutations of human Mucolipin transient receptor potential 1 (TRPML1) cause type IV mucolipidosis (ML4), a devastating neurodegenerative disease in young children. […] Currently, there is no treatment for ML4. […] Under physiological conditions, TRPMLs regulate membrane trafficking by transducing information about PI(3,5)P2 levels into changes in juxtaorganellar Ca2+, thereby triggering membrane fusion/fission events in the late endocytic pathways (endolysosomal trafficking). In addition, TRPML1 mediates release of Fe2+ from late endosomes and lysosomes, which is essential for cellular iron metabolism. Thus, impaired ion (Ca2+ and Fe2+) homeostasis underlies lysosomal dysfunction and ML4 phenotypes. In ML4 cells, the problem is twofold. First, defective Ca2+-dependent membrane trafficking due to TRPML1-deficiency causes accumulation of lipids and other bio-materials in the lysosome. The second strike comes from the lysosomal iron overload (due to impairment of TRPML1's Fe2+ conductivity), which converts the accumulated materials into the nondegradable (resistant to lysosomal degradation) lipofuscin (also called aging pigment) in the lysosome. Lipofuscin accumulation dramatically compromises the functions of lysosomes.
Niemann-Pick type C (NPC) disease is another lysosome storage disease (LSD) with severe neurodegeneration during the childhood. Currently, there is no cure for NPC. […] Thus, TRPML1 is likely to be an essential regulator of lysosome ion homeostasis. We specifically hypothesize that stimulating TRPML1's Fe2+/Ca2+ channel activity in the lysosome using synthetic agonists can alleviate neurodegeneration associated with ML4 or NPC.
To this end, a high throughput screen was developed in a miniaturized format to screen against the Molecular Libraries Small Molecule Repository (MLSMR) to find small molecules that act either as inhibitors or agonist against the TRPML1 channel.
NIH Chemical Genomics Center [NCGC]
NIH Molecular Libraries Probe Centers Network [MLPCN]
Assay Submitter (PI): Haoxing Xu, University of Michigan Ann Arbor
TRPML1-DL cells are dissociated from flasks, counted and, brought up to a density of 500,000 cells per mL of media containing a 1X Tet inducer. Using a Multidrop Combi, 3 uL of this cell solution is dispensed to each well of a 1536 TC treated, black, clear bottom hi base plate for a final cell density of 1,500 cells per well. The assay plates are incubated overnight (approximately 16 hours) at 37 degrees C and 5% CO2. Using a Multidrop Combi, 2 uL of ABD Ca8 no wash dye plus quencher is added to each well. The assay plates incubate at room temperature in the dark for 45-90 minutes. The assay plate is read on the FDSS using the following protocol: 10 second baseline read, 23 nL of compounds and controls are added using 1536 pintool, agonist read for 110 seconds, 1 uL EC80 addition (4 uM final 54-4 diluted in media), antagonist read for 110 seconds.
Regarding `COc1cc(C(=O)NCC2(N(C)C)CCCCC2)c([N+](=O)[O-])cc1OC`, the activity change, negative = inhibition was inactive: -20.5%.
The same measure for `CN(C)C1(CNC(=O)c2ccc(Br)cc2)CCCCC1`: inactive: -8.36%; for `O=C(NCC1(N2CCCCC2)CCCCC1)c1cccc(Cl)c1`: inactive: -9.88%; for `COc1ccc(C(=O)NCC2(N(C)C)CCCCC2)cc1Cl`: inactive: -10.6%.
As to `COc1ccc(Cl)cc1C(=O)NCC1(N(C)C)CCCCC1`, the activity change, negative = inhibition was inactive: 26.5%.
As for `COc1cccc(C(=O)NCC2(N3CCCCC3)CCCCC2)c1`, the figure is inactive: 3.64%.
As for `CC(C)COc1ccc(C(=O)NCC2(N(C)C)CCCCC2)cc1`, the figure is inactive: 2.6%.
Take `O=C(OC1CN2CCC1CC2)C(CO)(c1ccccc1)c1ccccc1` (stereo not given): the activity change, negative = inhibition was inactive: 5.01%.
The same measure for `COc1cccc(C(=O)NCC2(N3CCOCC3)CCCCC2)c1`: inactive: -13.4%; for `CN(C)c1cccc(C(=O)NCC2(N(C)C)CCCCC2)c1`: inactive: -8.24%; for `O=C(OCCN1CCCC1)C(O)(c1ccccc1)c1ccccc1`: inactive: -0.0046%.
As to `CC(C)Oc1ccc(C(=O)NCC2(N(C)C)CCCCC2)cc1`, the activity change, negative = inhibition is inactive: 15.2% and inactive: -9.08%.
In the case of `COc1ccc(Br)c(C(=O)NCC2(N3CCCCC3)CCCCC2)c1`, the activity change, negative = inhibition is inactive: 25.2%.
Consider `COc1cc(C(=O)NCC2(N(C)C)CCCCC2)cc(OC)c1OC`, for which the activity change, negative = inhibition is inactive: -15.3%.
Regarding `Cc1cccc(C(=O)NCC2(N(C)C)CCCCC2)c1`, the activity change, negative = inhibition is inactive: -2.91%.
In the case of `C=C(C)C#CC(O)(C(=O)OC1CCN(C)CC1)c1ccccc1` (stereo not given), the activity change, negative = inhibition was inactive: -22.5%.
On to `CN1[C@@H]2CC[C@H]1CC(OC(=O)C(O)(c1ccccc1)c1ccccc1)C2` (stereo not given in full), for which the activity change, negative = inhibition was inactive: 50.5%.
As for `O=C(NCC1(N2CCCCC2)CCCCC1)c1cc([N+](=O)[O-])ccc1Cl`, the figure is inactive: -4.97%; as for `CN(C)C1(CNC(=O)c2ccccc2F)CCCCC1`, inactive: 16.6%.
As for `Cc1ccc(C(=O)NCC2(N3CCCCC3)CCCCC2)cc1`, the figure is inactive: -8.39%.
As for `CC(C)N1C(=O)CC2(CCN(CCOC(=O)C(O)(c3ccccc3)c3ccccc3)CC2)C1=O`, the figure is inactive: 23.6%; as for `CN(C)C1(CNC(=O)c2cccc(Cl)c2)CCCCC1`, inactive: 18.5%; as for `CCN(CC)CC(C)C(C)OC(=O)C(O)(c1ccccc1)c1ccccc1` (stereo not given), inactive: 12.7%.
Take `CCCCOc1ccccc1C(=O)NCC1(N(C)C)CCCCC1`: the activity change, negative = inhibition was inactive: -2.85%.
For `CN(C)C1CCCC1OC(=O)C(O)(c1ccccc1)c1ccccc1` (stereo not given), the activity change, negative = inhibition was inactive: -10.3%.
The same measure for `CN(C)c1ccc(C(=O)NCC2(N(C)C)CCCCC2)cc1`: inactive: -6.3%; for `CN(C)C1(CNC(=O)c2ccccc2[N+](=O)[O-])CCCCC1`: inactive: -1.43%; for `Cc1ccccc1C(=O)NCC1(N2CCCCC2)CCCCC1`: inactive: 17.3%.
As for `O=C(NCC1(N2CCCCC2)CCCCC1)c1cccc(Br)c1`, the figure is inactive: -5.56%; as for `Cc1cc(C(=O)NCC2(N3CCCCC3)CCCCC2)ccc1[N+](=O)[O-]`, inactive: 33.4%; as for `CCN1CCCC(OC(=O)C2(O)c3ccccc3C=Cc3ccccc32)C1` (stereo not given), inactive: 1.27%.
As for `CCOc1cccc(C(=O)NCC2(N(C)C)CCCCC2)c1`, the figure is inactive: 0.976%.
Consider `COc1ccc(C(=O)NCC2(N(C)C)CCCCC2)cc1`, for which the activity change, negative = inhibition is inactive: -2%.
The same measure for `O=C(NCC1(N2CCCCC2)CCCCC1)c1cc(F)c(F)cc1Cl`: inactive: -11%; for `C=CCN1CCN(CCOC(=O)C(O)(c2ccccc2)c2ccccc2)CC1`: inactive: -3.36%.
